Assay [1] relates to temperature sensitive mutant of the E1 enzyme (ts20 cells). Particulars: 1 day 39.5° C., then agent one day at 39.5° C.; 75 mM TMAO, 0.75 M glycerol.
For assay [2], the system named is temperature sensitive form of pp60^src. It is filed as cell-based, Rous sarcoma virus. To be noted: 39.5° C.
For assay [3], the target named is temperature sensitive (ts) mutant p53 protein (Mus musculus, UniProt P02340, A135V). The experiment in a line: Intracellular localization of temperature sensitive p53 in A1-5 cells by indirect immunofluorescence. To be noted: 39.5° C., 2 D; D2O 100%, TMAO 75 mM, glycerol 0.6 M.

The chains behind the UniProt entries cited, without tags or fusion partners.
UniProt P02340, whole entry A135V: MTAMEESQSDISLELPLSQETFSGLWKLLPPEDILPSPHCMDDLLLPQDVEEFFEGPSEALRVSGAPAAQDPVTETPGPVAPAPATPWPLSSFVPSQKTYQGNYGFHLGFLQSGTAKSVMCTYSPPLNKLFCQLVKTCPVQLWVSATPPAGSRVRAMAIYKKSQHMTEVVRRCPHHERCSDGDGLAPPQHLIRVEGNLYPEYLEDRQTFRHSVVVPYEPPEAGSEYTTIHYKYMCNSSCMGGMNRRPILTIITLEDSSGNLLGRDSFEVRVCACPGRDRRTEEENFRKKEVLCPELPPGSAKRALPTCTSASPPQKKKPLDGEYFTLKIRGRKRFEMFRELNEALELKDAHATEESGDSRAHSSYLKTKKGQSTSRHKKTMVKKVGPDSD

From US6541195B2, “Correction of genetic defects using chemical chaperones” (The Regents of the University of California, priority 1996, dated 2003) come the findings set out here.

In the case of `OCC(O)CO` [glycerol], the “nuclear p53 staining when agent is added to cells already at the nonpermissive temperature” value in assay [1] is reported as “p53 staining no longer was observed”. Further, in assay [2], the “restoration of transformed phenotype / wild type pp60^src activity” value was “morphology very similar to the control cells maintained at 32.5 °C”. In addition, the “intracellular distribution of p53” value in assay [3] was “nuclear locale of p53”.

Regarding `C[N+](C)(C)[O-]` [TMAO, trimethylamine N-oxide], the “intracellular distribution of p53” value in assay [3] is recorded as “nuclear locale of p53”. Still for that read-out and setting: the value for `[2H]O[2H]` [deuterated water] was “nuclear locale of p53”.
